Results published in patent US20220218682A1, “COMPOSITIONS AND METHODS FOR TREATING CANCER” (THE UNITED STATES GOVERNMENT AS REPRESENTED BY THE …, priority 2019, published 2022).
“Also recorded” adds a separate entry of the source.

Key:
TNF = TNF protein in medium of brain cancer cells (GBM9), FIG. 1; type: cell-based; settings: INH with afatinib
HCC827 and H3255 cells = experiment: AlamarBlue cell viability assay, oncogene addicted EGFR mutant cells; settings: exogenous TNF with erlotinib

| Compound | effect on TNF release / afatinib-induced TNF secretion (TNF) | protection from erlotinib-induced cell death (HCC827 and H3255 cells) |
| --- | --- | --- |
| NNC(=O)c1ccncc1 [INH, Isoniazid] | can block TNF release; also recorded: blocked (or inhibited or suppressed) |  |
| TNF: Recombinant human TNF obtained from Peprotech |  | protects HCC827 and H3255 cells from erlotinib-induced cell death |
